Data on one molecule can be found in ChEMBL document CHEMBL2406958, “Development of a chimeric c-Src kinase and HDAC inhibitor” (ACS Med Chem Lett, 2013).

What all share (assay type): functional
For one test, the system named is MDA-MB-231. The test can be described thus: Cytotoxicity against human MDA-MB-231 cells after 48 hrs by SRB assay.
A further test deals with U-251. Nature of the test: Cytotoxicity against human U251 cells after 48 hrs by SRB assay.
A short description of test [1]: Cytotoxicity against human NCI60 cells after 48 hrs by SRB assay. In general terms: In SRB staining, fixed cells bind dye roughly in proportion to their protein.

Each structure is given as a SMILES string.

A word on the GI50: it is the concentration that inhibits growth by half. As for `O=C(CCCCCCC(=O)Nc1ccccc1)NO` [VORINOSTAT], the GI50 in the test with MDA-MB-231 was determined as 2320 nM; with U-251 it was 1530 nM; in test [1], 530 nM.
